Results as given in patent US20050137215A1, “[C]-fused bicyclic proline derivatives and their use for treating arthritic conditions” (priority 2003, published 2005).

Chains of the proteins cited; added tags and fusions are not shown. Residues count along the entry.
UniProt G3GRU9, 1-506: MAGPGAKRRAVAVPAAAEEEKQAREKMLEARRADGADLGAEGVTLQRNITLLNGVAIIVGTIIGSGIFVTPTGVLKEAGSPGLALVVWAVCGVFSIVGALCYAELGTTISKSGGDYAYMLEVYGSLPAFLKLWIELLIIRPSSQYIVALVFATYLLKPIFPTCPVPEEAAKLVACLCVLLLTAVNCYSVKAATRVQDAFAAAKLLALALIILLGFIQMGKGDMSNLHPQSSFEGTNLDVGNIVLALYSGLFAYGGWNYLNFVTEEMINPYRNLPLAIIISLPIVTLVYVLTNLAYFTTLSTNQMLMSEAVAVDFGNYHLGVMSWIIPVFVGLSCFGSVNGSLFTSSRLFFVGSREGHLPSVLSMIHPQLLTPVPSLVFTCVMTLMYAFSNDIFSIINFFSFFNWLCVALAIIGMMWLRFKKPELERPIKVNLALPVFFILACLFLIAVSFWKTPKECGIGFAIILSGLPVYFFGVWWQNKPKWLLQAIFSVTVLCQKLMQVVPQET
UniProt A0A9J7CH39, 1-533 partner: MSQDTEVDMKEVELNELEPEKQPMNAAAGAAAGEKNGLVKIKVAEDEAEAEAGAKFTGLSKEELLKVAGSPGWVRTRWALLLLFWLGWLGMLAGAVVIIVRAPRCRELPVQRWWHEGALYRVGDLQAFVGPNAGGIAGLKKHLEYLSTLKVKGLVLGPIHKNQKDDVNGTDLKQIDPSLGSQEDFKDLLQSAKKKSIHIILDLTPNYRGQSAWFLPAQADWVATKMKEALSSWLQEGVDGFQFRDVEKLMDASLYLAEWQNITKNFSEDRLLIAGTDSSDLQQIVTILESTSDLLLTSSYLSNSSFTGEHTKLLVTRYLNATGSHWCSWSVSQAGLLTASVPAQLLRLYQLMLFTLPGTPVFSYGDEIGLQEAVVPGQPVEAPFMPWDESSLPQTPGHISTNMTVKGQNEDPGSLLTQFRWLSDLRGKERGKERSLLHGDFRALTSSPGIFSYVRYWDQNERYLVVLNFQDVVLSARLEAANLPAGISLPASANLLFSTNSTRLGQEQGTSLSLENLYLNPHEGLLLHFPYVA

What was measured:
[1] = tested on: Monosodium Iodoacetate-Induced Osteoarthritis in Rat Model of Joint Cartilage Damage; assay: Monosodium iodoacetate-induced osteoarthritis in rat (MIA Rat), loss of hind limb joint function; conditions: male Wistar rats, MIA 1 mg/joint, 10 mg/kg/day subcutaneously via osmotic pump, tested form: HCl
Text: Monosodium Iodoacetate-Induced Osteoarthritis in Rat Model of Joint Cartilage Damage (“MIA Rat”):
One end result of the induction of osteoarthritis in this model, as determined by histologic analysis, is the development of an osteoarthritic condition within the affected joint, as characterized by the loss of Toluidine blue staining and formation of osteophytes. […]
Generally, In the MIA Rat model on Day 0, the hind-paw weight differential between the right arthritic joint and the left healthy joint of male Wistar rats (150 g) are determined with an incapacitance tester, model 2KG (Linton Instrumentation, Norfolk, United Kingdom). […]
Administration of an invention compound in this model is optionally by oral administration or by intravenous administration via an osmotic pump. After 7 and 14 days for a two week study, or 7, 14, and 28 days for a four week study, the hind-paw weight distribution is again determined. […] Percent inhibition of a change in hind paw joint function is calculated as the percent change in hind-paw weight distribution for treated animals versus control animals. […]

leucine transport system = leucine transport system (Cricetulus griseus, UniProt G3GRU9); assay: Leucine transport system binding assay (LTSBA), [3H]leucine uptake in CHO K1 cells; type: cell-based; conditions: read-out: LTS IC50, leucine transport system binding, inhibition of saturable [3H]leucine uptake, tested form: HCl
Description: Leucine Transport System Binding Assay (“LTSBA”) The sodium-containing buffer for transport assay was phosphate buffered saline (“PBS”) consisting of 137 mM NaCl, 2.7 mM KCl, 10.6 mM Na2HPO4, and 1.5 mM KH2PO4. The sodium-free buffer had equimolar amounts of choline chloride and choline phosphate in place of NaCl and […], respectively. This buffer is referred to as PBC. Prior to use, both PBS and PBC buffers (pH 7.4) were supplemented with 5.6 mM D-glucose, 0.49 mM MgCl2, and 0.9 mM CaCl2 (GMC). For cultured monolayer cells (in general, CHO K1 cells), the cluster tray transport assay was used as described previously (Su et al, J. Neurochem., 1995; 64:2125-2131, and references therein). […] The initial transport rates were determined by measuring uptake of tracer [3H] […] Secondary analysis of the initial velocity kinetic curves were determined by non linear regression analysis, using the equation: log V=log {[Vmax.S/(Km+S)]+P.[S]} where V, S, Vmax, and Km have their conventional meanings, and P represents the first order rate constant describing the nonsaturable uptake. An IC50 was determined as percentage inhibition of saturable leucine uptake. […] They were calculated by subtracting the corresponding substrate uptake rates in the presence of 10 mM excess unlabeled leucine from the total uptake rates. […] The efflux was calculated as percentage of the intracellular labeled substrate at zero time. […]

In the case of `O=C(O)C1NCC2CC(O)C(O)CC21` (single isomer, unassigned) [N3], the “% I @ 10 mg/kg/day (%) (± SEM): inhibition of loss of hind limb joint function in MIA at Day 14” value [1] is reported as 27% and the IC50 (leucine transport system) is reported as > 8.3 mM.
